This assay has as its target Cyclin-C/Cyclin-dependent kinase 19 (Homo sapiens, UniProt Q9BWU1). The experiment in a line: Binding affinity to recombinant human CDK19/cyclinC assessed as dissociation constant by TR FRET based assay. It is filed as protein-complex assay. Background: In TR-FRET formats the signal depends on donor and acceptor labels being close together.

The chains behind the UniProt entries cited, without tags or fusion partners. Where a name states a change or a piece, a line headed by the entry shows the natural chain unless it says otherwise.
UniProt Q9BWU1: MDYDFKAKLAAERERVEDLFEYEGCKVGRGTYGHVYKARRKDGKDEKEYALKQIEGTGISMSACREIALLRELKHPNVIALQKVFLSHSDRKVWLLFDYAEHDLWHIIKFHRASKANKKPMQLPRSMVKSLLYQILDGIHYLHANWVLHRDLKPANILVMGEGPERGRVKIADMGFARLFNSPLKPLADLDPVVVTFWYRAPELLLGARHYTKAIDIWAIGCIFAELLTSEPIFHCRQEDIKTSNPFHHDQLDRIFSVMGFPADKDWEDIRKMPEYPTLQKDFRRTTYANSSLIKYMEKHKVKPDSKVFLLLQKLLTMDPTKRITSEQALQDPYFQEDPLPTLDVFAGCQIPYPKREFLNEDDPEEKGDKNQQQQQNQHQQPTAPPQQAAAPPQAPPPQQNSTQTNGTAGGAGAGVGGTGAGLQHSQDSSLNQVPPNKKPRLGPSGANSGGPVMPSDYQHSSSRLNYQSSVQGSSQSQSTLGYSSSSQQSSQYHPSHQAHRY

What is called Kd is the concentration at which binding is half-saturated.

`CN1CCN(C(=O)c2ccc3cc(CCNc4ncnc5ccc(C#N)cc45)ccc3c2)CC1` [SENEXIN B]: the Kd was determined as 2.95 nM.

Source of the values: ChEMBL document CHEMBL5046270, “A Selective and Orally Bioavailable Quinoline-6-Carbonitrile-Based Inhibitor of CDK8/19 Mediator Kinase with Tumor-Enriched Pharmacokinetics” (J Med Chem, 2022).
